Sequences of proteins named here, by UniProt entry; tags and fusion partners are left off. A change or cut given only in a name is not applied to a line headed by its entry.
UniProt Q9ULV4: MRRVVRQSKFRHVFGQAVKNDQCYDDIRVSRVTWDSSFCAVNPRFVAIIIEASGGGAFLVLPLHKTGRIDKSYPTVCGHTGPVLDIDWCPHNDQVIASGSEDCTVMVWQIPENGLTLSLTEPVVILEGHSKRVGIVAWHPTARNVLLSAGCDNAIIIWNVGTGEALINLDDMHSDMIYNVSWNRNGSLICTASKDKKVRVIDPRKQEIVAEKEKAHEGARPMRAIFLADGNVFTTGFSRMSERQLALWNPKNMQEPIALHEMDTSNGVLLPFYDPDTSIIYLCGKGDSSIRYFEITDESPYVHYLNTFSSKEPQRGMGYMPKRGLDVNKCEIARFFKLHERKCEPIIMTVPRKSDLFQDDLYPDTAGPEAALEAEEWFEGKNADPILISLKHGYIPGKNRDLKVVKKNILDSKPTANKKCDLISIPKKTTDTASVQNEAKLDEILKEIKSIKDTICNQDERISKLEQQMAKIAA

In US20190062671A1, “PERFUME COMPOSITIONS” (Givaudan SA, priority 2016, published 2019):

Legend:
[1] = test system: Nrf2-dependent luciferase (ARE-element of the gene AKR1C2) in KeratinoSens cell line; test: KeratinoSens assay, luciferase gene induction (OECD TG 442d); details: single chemicals, 48 h
Description: The level of skin sensitization can reliably and quantitatively be measured experimentally by the KeratinoSens® method, which measures the induction of Nrf2-dependent luciferase in a skin cell line.
Compounds were tested using the commercial KeratinoSens® assay for skin sensitization. The KeratinoSens® test compares the potential skin sensitization risk of chemicals. […] KeratinoSens® cells were grown for 24 h in 96-well plates. The medium was then replaced with medium containing the test chemical and the solvent dimethylsulfoxide (DMSO) at a final level of 1% (v/v). Each compound was tested at 12 binary dilutions in the range from 0.98 to 2000 μM. Cells were incubated for 48 h with the test agents, and then luciferase activity and cytotoxicity were determined. This full procedure was repeated three times for each chemical. For each chemical in each repetition and at each concentration, the gene induction compared to DMSO controls and the wells with statistically significant induction over the threshold of 1.5 (i.e. 50% enhanced gene activity) were determined. Furthermore, the maximal fold-induction (Imax) and the EC1.5 value (concentration in μM for induction above the threshold) were calculated.
All compositions were tested in the concentration range from 0.2-400 ppm (parts per million in weights per volume).

[2] = molecular target: test peptide Cor1C-420 (Ac-NKKCDLF) (Homo sapiens, UniProt Q9ULV4, I423F); test: Modified direct peptide reactivity assay with LC-MS detection of peptide adducts
Description: Alternatively, the sensitization potential can be quantified by measuring the reactivity of test chemicals with peptides.
It is based on the fact that allergenic chemicals must react with a peptide/protein in order to be immunogenic.
The samples were incubated for 24 h at 37° C. and analysed by LC-MS analysis on a VELOS PRO Mass spectrometer (Thermo […], San Jose, Calif., U.S.A.) operated in the ESI(+) mode.
Mass spectra were recorded from 200-2000 amu. A ZORBAX Eclipse XDB-C18 column, 2.1 mm ID, 150 mm, 5-Micron (Agilent Technologies) was used. The mobile phase consisted of H2O (A) and methanol (B) each containing 0.1% formic acid (v/v). The solvent flow was 250 μl/min and the following gradient (ratio A:B) was used: 0 min, 95:5; 2 min, 40:60; 10 min, 2:98; 12 min, 2:98. The integration was performed with Xcalibur Quan Browser™.
In order to detect formation of modified peptides, the specific ion trace for a new adduct with the mass of the test chemical added to the test peptide is extracted, and the peak of the peptide-adduct is integrated. Peptide adduct formation is a particular sensitive endpoint to determine reactive, and thus allergenic nature of compounds.

- Imax (fold maximal gene induction) ([1]; 0.98 to 2000 μM): 22.3 fold
- Concentration for 1.5-fold gene induction (EC 1.5 in μM) ([1]; n.i. = no induction above threshold of 1.5 (negative rating), listed as I): 7.7 µM
- Peptide reactivity: adduct observation [2]: Direct Michael
- Peptide reactivity: adduct observation ([2]; 1 mM test chemical, 0.1 mM peptide, 24 h at 37° C.): does form a direct peptide adduct
SMILES: CC(C)=CCCC(C)=CC=O [Citral, 3,7-dimethyl-2,6-octadienal, reference compound]

Where two headings read alike, the source gives them in different places.
